Results taken from US12668568B2, “Adamantanyl-substituted benzamide compounds and their use as P2X7 receptor antagonists” (The University of Sydney, priority 2018, dated 2026).

By UniProt entry, the sequences of proteins in these tests, tags left out. Where a name states a change or a piece, a line headed by the entry shows the natural chain unless it says otherwise.
UniProt Q99572: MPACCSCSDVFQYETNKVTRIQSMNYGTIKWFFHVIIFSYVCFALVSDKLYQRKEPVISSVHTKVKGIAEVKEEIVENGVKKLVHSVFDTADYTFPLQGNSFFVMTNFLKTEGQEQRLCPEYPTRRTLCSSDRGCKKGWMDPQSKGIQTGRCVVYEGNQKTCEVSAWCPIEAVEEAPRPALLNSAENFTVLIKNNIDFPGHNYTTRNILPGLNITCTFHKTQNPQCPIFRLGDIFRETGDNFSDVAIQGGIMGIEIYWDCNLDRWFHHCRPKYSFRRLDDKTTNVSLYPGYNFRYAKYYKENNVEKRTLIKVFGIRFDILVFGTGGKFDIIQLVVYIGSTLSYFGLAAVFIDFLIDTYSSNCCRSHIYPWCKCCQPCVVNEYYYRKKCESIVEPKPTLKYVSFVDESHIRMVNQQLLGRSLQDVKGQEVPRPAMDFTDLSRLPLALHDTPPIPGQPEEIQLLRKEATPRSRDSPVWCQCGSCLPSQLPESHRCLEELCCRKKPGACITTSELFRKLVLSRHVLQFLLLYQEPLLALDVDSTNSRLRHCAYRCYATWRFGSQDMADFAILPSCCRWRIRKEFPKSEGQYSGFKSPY

Target: hP2X7R (Homo sapiens, UniProt Q99572)
Assay: Calcium influx assay in HEK-hP2X7 cells
Format: cell-based
Conditions: HEK cells expressing hP2X7R, BzATP 100 μM; mean ± standard deviation, n >3
Protocol: Human monocytic leukaemia cells (THP-1) were obtained from the American Type Culture Collection (ATCC) and were grown in RPMI 1640 medium (Invitrogen), supplemented with penicillin (100 U/mL), streptomycin (100 μg/mL) and 10% (v/v) heat-inactivated fetal bovine serum (FBS). HEK293T cells transfected with cDNA for the human (HEK-hP2X7) or mouse P2X7 (HEK-mP2X7) receptor (a kind gift from Dr […] Stokes and Prof. Jim Wiley) were cultured in DMEM/F12 with 10% FBS and 500 μg/mL G418 (all from Invitrogen). […] HEK-hP2X7 or HEK-mP2X7 cells were harvested using trypsin (0.05%) with EDTA (0.03%). Cells were loaded with Fluo-4 AM (1 μM) in HBSS buffer at 37° C. for 30 min, inverting every 5 mins. Cells were then washed twice with assay buffer (NaCl 137 mM, KCl 1.8 mM, KH2PO4 1.2 mM, MgSO4 1.2 mM, NaHCO3 5.2 mM, CaCl2 1.6 mM, glucose 6 mM, HEPES 20 mM, pH 7.3), centrifuging between washes at 1200 rpm for 5 mins. Cells were resuspended a final time in assay buffer and seeded into black-walled 96 well clear-bottom plates at a density of 5×10^4 cells/well. […] Fluorescence was then monitored every 5 s for 5 min total monitoring. […] Data were normalized to the peak response seen with BzATP alone and the basal response seen due to injection of vehicle (see FIG. 3).

COc1ccc(Cl)c(C(=O)NCC23CC4(F)CC(F)(CC(F)(C4)C2)C3)c1 [Compound 1, 2-Chloro-N-((3,5,7-trifluoroadamantan-1-yl)methyl)-5-methoxybenzamide]
IC50: 0.0245 ± 0.0055 µM
